Values of other authors, collected in US20130034496A1, “POSITRON EMISSION TOMOGRAPHY TRACER” (UNIVERSITY OF IOWA RESEARCH FOUNDATION, priority 2011, published 2013).

Conditions: mouse; cited from earlier work

(S)-5,6,7,8-tetrahydrofolate [THF]
LD50: 10000 mg/kg
